This is an account of results in paper PMC5161541 (Nuclear medicine and biology, 2016).

Amino acid sequences for entries named in this document (tags omitted).
UniProt O55242, whole entry: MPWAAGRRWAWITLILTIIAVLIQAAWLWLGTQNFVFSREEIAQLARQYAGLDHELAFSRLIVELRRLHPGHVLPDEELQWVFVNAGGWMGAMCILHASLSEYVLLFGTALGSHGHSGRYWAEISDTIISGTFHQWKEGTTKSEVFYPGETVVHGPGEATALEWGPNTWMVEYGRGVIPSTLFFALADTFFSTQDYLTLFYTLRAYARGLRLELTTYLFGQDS

The target in this assay is sites labeled by [125I]-E-IA-BF-PIPZE (σ1 receptors) (Mus musculus, UniProt O55242). It counts as binding.

`CC(C)=CCN1CC[C@]2(C)c3cc(O)ccc3C[C@H]1[C@H]2C` [(+)-Pentazocine, (+)-pentazocine]: the midpoint of inhibition, the IC50, lay at 13.7 ± 1.4 nM and the Ki turned out to be 8.1 ± 0.8 nM.

As a reminder, the IC50 is the point on the concentration scale where inhibition reaches its midpoint. Read a low IC50 as inhibition by little substance. A word on the Ki: it is a measure of affinity in units of concentration, obtained from inhibition or displacement.
